Source: US9840512B2, “Antidiabetic bicyclic compounds” (Merck Sharp & Dohme Corp., priority 2013, dated 2017)

Amino acid sequences for entries named in this document (tags omitted).
UniProt O14842, whole entry: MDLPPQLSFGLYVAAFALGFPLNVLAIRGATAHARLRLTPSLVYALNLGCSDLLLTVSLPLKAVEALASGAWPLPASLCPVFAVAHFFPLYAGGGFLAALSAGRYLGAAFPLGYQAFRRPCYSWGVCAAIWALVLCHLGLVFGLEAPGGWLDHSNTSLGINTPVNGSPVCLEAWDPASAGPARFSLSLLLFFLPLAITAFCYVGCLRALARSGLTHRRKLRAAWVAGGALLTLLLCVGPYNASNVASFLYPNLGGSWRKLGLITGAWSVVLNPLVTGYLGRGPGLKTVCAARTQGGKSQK

Experiments:
[1] = target: T1, human GPR40 (Homo sapiens, UniProt O14842); assay: Inositol Phosphate Turnover (IP1) Assay 1; conditions: read-out: Human IP1 Assay 1, EC50; HEK cells stably expressing human GPR40
[2] = target: T1, human GPR40; assay: FLIPR assay (agonist-induced calcium mobilization); conditions: read-out: Human FLIPR EC50, nM or % activation (EC50 values); GPR40/CHO NFAT BLA cells

EC50 [1]: 447 nM
EC50 [2]: 61 nM
SMILES: CC#CC(CC(=O)O)c1ccc2c(c1)CCC(c1nc(-c3ccccc3C(F)(F)F)ccc1F)O2 (centres unmarked)
